The record followed here is article PMC6332354, “Synthesis, Biological Evaluation and Molecular Docking Studies of Piperidinylpiperidines and Spirochromanones Possessing Quinoline Moieties as Acetyl-CoA Carboxylase Inhibitors” (Molecules, 2015).

The target in this assay is T1, rat ACC1 (Rattus norvegicus, UniProt P11497).
T1 construct: purchased Huawei Pharmaceutical Co. Ltd (Shanghai, China)
The assay can be described thus: ACC1 in vitro assay (Kinase-Glo Plus luminescence). The class given is biochemical. As to conditions: arithmetic means of three experiments, standard deviation in parentheses. As for the experimental part:
To investigate the biological activities of the synthesized compounds, the in vitro inhibitory activities of these compounds against both rat ACC1 and ACC2 were evaluated according to the previous experimental method with some changes. The ACC1 and ACC2 enzymes were supplied by Huawei Pharmaceutical Co. Ltd (Shanghai, China). The compound CP-640186 was supplied by Selleck Chemicals Co. Ltd. (Houston, TX, USA) Briefly, the test compounds were diluted in 10% DMSO at 10 μM. Then, the solution was diluted with buffer solution until it reached the required concentration (1 nM to 10 μM) and 5μL of the dilution was added to a 50 μL reaction mixture containing 30 mM HEPES, pH 7.4, 2 mM MgCl2, 2 mM sodium citrate, 1 mM DTT, 25 μM ATP, 16 mM NaHCO3 and 15 μM acetyl-CoA. All of the enzymatic reactions were conducted at 30 °C for 60 min. The assay was performed using Kinase-Glo Plus luminescence kinase assay kit (Beijing, China), which measures kinase activity by quantifying the amount of ATP remaining in solution following a kinase reaction. The luminescent signal from the assay […] with the amount of kinase activity. The same concentrations of DMSO were tested in parallel and used as background control. The inhibition percentage was expressed as the average value from three independent experiments. […]

One may read the IC50 as the concentration needed to halve the response being measured. For `O=C(c1c2ccccc2cc2ccccc12)N1CCC(N2CCC[C@@H](C(=O)N3CCOCC3)C2)CC1` [CP-640186, reference compound], the IC50 amounted to 173 nM.
